This assay deals with T1, human DNA-PK (Homo sapiens, UniProt P78527).
T1 construct: The frozen HeLa cell pellet was thawed at 37° C. and immediately centrifuged; endogenous in cells; host or cells: HeLa S3 cells (ATCC CCL-2.2); Endogenous enzyme purified via S100-2 fraction, Q-Sepharose FF and SP-Sepharose FF (fraction IV)
Kind of assay: Standard DNA-PK assay (p53 peptide phosphorylation). The class given is biochemical. Here is the method: Reactions were carried out at room temperature. Reactions were started by addition of ATP and stopped by application to phosphocellulose paper. Reaction products spotted onto phosphocellulose paper were washed five times with a total volume of at least 250 mL 10% acetic acid or 150 mM phosphoric acid. The paper was air dried and radioactivity was determined in a Beckman LS6000IC scintillation counter.

Chains of the proteins cited; added tags and fusions are not shown.
UniProt P78527, whole entry: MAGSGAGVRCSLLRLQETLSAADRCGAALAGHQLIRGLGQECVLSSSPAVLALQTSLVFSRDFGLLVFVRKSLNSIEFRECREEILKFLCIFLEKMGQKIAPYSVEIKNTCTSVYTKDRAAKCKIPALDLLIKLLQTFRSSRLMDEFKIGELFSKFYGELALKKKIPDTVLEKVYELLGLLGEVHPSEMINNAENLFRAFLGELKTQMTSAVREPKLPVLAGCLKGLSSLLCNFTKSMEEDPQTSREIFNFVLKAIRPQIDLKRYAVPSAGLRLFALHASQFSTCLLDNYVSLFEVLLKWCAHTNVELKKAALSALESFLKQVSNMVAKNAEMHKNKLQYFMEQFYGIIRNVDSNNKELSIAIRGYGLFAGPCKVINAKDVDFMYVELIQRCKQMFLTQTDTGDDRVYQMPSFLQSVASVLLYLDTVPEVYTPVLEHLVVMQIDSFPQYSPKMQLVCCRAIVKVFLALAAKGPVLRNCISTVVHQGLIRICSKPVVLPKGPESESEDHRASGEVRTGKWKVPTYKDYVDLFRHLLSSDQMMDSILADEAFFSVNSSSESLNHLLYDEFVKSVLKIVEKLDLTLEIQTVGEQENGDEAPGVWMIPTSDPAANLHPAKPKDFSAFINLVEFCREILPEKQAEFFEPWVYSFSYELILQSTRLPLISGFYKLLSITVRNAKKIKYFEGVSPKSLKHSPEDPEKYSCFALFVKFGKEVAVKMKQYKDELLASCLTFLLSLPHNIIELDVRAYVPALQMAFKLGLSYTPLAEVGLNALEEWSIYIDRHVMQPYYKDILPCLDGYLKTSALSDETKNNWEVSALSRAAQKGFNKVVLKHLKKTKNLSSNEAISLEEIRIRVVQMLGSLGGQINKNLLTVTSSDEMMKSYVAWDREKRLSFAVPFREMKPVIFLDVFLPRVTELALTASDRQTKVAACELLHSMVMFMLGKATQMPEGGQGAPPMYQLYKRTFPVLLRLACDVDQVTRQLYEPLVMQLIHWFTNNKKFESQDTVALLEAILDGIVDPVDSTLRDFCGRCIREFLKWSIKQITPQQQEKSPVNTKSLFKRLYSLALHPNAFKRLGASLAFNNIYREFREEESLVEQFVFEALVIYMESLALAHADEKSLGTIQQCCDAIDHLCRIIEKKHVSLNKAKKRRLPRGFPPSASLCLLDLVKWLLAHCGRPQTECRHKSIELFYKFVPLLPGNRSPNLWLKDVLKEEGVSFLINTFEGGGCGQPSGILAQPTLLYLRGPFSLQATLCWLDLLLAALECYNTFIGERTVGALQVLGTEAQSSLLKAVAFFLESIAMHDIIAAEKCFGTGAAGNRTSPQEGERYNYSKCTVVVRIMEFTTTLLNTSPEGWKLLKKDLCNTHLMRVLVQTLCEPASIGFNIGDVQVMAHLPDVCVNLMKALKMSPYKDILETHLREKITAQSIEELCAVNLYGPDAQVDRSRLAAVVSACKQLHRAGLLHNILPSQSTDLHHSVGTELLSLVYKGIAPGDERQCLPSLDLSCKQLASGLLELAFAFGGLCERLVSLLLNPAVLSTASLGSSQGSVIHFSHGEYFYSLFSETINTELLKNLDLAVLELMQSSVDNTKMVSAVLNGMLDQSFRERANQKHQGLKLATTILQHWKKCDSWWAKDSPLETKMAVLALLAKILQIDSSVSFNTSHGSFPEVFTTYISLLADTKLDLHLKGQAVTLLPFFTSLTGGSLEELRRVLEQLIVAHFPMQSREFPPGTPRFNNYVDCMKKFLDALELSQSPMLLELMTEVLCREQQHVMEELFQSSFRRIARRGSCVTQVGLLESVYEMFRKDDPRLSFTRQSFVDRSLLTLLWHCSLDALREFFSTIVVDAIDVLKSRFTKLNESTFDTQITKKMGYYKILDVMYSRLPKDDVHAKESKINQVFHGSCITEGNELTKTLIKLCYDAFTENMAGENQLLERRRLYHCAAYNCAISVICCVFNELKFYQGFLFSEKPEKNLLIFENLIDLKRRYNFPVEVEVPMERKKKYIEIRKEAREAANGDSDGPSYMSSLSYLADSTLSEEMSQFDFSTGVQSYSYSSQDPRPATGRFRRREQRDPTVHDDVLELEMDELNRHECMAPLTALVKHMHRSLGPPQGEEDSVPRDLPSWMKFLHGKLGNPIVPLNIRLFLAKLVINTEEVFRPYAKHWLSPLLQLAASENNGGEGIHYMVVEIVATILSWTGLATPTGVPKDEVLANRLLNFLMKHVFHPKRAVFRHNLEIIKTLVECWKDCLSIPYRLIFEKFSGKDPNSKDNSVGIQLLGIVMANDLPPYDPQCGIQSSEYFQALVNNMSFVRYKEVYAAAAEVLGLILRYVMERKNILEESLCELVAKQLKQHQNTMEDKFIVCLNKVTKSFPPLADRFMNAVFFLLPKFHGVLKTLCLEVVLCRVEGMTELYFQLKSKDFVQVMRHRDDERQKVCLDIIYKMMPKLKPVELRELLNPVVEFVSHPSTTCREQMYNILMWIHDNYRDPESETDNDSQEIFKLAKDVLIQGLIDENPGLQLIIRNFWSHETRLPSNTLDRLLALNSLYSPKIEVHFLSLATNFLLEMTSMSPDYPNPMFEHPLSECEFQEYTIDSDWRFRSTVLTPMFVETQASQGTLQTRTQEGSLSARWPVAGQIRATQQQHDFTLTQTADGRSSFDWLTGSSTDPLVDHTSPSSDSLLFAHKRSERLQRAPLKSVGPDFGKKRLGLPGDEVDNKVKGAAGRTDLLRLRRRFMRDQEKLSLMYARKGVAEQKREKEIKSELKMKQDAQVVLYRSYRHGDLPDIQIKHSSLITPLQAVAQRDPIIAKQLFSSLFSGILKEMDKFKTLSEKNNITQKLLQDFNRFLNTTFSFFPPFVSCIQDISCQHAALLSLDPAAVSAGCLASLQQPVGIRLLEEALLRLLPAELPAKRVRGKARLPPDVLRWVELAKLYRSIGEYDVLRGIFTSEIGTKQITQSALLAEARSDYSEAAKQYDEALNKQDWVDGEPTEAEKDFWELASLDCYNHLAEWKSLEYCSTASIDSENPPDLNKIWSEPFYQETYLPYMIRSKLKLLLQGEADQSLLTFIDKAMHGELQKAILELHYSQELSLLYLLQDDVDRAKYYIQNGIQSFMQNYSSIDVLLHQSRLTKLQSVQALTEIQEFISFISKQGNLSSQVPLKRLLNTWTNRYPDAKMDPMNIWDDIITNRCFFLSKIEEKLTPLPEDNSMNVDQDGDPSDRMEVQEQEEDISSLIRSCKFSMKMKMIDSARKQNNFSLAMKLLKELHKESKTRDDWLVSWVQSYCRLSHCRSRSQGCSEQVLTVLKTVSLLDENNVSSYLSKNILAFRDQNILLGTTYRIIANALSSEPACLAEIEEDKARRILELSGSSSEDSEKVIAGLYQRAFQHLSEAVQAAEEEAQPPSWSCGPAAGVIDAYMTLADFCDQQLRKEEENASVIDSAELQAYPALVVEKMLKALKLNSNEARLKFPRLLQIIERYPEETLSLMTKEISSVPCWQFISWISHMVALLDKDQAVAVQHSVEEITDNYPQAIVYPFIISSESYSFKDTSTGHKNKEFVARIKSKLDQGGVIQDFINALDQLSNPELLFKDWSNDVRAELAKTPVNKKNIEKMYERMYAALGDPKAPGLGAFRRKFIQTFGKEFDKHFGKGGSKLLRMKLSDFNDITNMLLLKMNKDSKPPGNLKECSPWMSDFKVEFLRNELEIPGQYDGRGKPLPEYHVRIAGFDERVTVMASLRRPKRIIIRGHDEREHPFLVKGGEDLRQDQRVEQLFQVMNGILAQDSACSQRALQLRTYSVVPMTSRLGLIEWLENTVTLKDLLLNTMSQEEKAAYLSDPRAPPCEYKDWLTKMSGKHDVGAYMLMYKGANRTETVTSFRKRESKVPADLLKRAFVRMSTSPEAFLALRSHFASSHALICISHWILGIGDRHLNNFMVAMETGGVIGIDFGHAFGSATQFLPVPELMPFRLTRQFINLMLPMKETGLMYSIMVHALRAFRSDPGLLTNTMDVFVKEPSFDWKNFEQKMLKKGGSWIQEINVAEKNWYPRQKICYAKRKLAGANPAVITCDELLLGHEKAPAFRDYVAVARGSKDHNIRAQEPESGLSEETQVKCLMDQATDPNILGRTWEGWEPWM

As a reminder, the IC50 is the concentration needed to halve the response being measured. Read a high IC50 as weaker potency. Consider `COC[C@H]1OC(=O)c2coc3c2[C@@]1(C)C1=C(C3=O)[C@@H]2CCC(=O)[C@@]2(C)C[C@H]1OC(C)=O` [wortmannin, reference compound], for which the IC50 was in the range of 100 to 250 nM.

For the origin of these results see patent US8242115B2, “Materials and methods to potentiate cancer treatment” (Luitpold Pharmaceuticals, Inc., priority 2000, dated 2012).
